Measured values published in US11071801B2, “Release of ClO2 gas from medical device packaging film” (priority 2015, dated 2021).

Type: physicochemical
Settings: 20 mL sealed vial, upper detection limit 240 ppm

For sodium chlorite [Sample 6], the “ClO2 concentration after UV (254 nm) light exposure” value (after the fluorescent exposure, UV 254 nm for 15 seconds) was over 240 ppm and the “ClO2 concentration after fluorescent light exposure” value (compact fluorescent light approx. 4.5 hours) was 63 ppm.
